From ChEMBL document CHEMBL2429814 (J Med Chem, 2013) come the findings set out here.

Amino acid sequences for entries named in this document (tags omitted).
UniProt P41594, whole entry: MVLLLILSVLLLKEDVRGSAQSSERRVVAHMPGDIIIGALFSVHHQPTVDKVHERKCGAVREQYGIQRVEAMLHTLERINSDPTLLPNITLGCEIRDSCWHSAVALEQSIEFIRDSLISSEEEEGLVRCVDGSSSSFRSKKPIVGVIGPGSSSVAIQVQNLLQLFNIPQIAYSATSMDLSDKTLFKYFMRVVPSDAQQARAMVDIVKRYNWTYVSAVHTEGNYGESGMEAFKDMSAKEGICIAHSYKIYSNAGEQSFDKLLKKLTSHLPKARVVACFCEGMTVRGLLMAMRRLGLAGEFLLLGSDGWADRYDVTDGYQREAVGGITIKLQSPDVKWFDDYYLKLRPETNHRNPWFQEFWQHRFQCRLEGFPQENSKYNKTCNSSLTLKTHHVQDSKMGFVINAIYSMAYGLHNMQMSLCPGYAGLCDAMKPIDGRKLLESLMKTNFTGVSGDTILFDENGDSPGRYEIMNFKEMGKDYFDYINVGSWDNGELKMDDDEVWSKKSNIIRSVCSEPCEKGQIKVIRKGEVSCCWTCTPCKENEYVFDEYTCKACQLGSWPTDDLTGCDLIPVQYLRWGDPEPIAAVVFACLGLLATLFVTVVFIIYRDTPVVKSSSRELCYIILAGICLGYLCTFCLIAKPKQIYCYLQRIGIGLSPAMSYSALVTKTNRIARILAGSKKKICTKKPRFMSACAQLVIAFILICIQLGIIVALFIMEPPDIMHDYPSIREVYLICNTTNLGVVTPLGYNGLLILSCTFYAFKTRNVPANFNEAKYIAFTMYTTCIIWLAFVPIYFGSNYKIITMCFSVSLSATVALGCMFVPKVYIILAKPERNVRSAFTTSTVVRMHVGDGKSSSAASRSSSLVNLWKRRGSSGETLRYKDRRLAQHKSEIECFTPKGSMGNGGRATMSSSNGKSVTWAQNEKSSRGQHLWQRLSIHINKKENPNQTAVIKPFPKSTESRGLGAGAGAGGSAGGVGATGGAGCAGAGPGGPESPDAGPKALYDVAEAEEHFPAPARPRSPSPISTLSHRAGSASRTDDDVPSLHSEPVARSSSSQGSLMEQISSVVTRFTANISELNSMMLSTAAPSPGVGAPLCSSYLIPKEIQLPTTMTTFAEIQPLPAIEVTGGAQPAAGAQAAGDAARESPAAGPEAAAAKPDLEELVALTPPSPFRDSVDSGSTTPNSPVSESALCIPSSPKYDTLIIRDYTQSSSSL
UniProt P31424, whole entry: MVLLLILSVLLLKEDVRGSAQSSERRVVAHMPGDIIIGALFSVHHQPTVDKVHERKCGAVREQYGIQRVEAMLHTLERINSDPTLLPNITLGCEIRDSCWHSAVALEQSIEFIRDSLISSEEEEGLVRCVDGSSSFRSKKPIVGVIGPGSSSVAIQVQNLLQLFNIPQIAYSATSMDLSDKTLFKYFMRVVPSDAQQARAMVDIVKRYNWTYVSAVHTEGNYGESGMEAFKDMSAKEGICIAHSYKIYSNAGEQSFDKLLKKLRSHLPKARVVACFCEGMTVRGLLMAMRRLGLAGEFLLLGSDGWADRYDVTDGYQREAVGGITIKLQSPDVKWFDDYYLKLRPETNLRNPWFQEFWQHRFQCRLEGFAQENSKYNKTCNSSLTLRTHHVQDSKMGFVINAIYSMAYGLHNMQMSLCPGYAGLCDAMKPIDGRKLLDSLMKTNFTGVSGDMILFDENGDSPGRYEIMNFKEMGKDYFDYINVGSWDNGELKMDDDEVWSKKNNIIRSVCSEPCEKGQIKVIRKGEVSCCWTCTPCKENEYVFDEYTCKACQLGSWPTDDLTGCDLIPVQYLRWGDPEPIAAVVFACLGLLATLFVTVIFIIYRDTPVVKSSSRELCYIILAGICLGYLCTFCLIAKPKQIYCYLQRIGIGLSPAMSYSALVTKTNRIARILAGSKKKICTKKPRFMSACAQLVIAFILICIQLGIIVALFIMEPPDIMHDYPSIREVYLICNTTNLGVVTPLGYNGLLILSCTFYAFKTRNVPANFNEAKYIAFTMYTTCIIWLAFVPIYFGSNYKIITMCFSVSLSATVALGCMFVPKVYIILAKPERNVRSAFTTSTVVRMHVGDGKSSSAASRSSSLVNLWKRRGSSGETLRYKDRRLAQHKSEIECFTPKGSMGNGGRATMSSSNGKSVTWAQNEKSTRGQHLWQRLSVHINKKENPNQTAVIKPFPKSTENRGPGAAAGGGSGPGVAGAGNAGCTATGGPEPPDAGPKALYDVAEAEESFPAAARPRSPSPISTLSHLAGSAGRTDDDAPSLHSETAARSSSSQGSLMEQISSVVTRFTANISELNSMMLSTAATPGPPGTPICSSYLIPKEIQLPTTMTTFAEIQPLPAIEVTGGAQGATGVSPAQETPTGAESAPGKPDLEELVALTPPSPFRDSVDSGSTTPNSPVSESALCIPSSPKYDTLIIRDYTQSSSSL

Structures are written as SMILES. pEC50: −log10 of the molar value.

One may read the pEC50 as the EC50 on a negative log10 scale, so that one unit is a factor of ten.

The target in assay [1] is Metabotropic glutamate receptor 5 (Homo sapiens, UniProt P41594).
Assay [2] has as its target Metabotropic glutamate receptor 5 (Rattus norvegicus, UniProt P31424). Kind of assay: Positive allosteric modulation of rat mGluR5 stably expressed in CHO cells assessed as Ca2+ flux by FLIPR assay. It counts as functional, cell-based.

Take `N#Cc1cccc(C(=O)Nc2cc(-c3ccccc3)nn2-c2ccccc2)c1`: the figures for the pEC50 in assay [1] and in assay [2] were 7.57 and 7.01, respectively.
